Laboratory results published in patent publication US5369095A, “Compositions and method comprising substituted glycosides as mucus membrane permeation enhancers” (priority 1993, dated 1994).

Conditions: rabbit, in vivo

HPMC
increase in the amount of para-amino-clonidine found in the aqueous humor: ~4.0 fold
